Measured values from PubChem BioAssay AID894 (National Center for Advancing Translational Sciences (NCATS), 2007).
Only a part is listed here, and it is no random draw. Some of these compounds have results that are not shown, active ones among them. Records with an inconclusive call do not appear. Calls of active or inactive are those of the source. Calls follow the shape of the dose curve; as a rule, active = well fitted inhibition curve with a large enough effect (not every such curve was filed as active); inconclusive = small, poorly fitted or top-dose-only effect, or another doubt; inactive = no such curve, though single readings can be large or run the other way.

Amino acid sequences for entries named in this document (tags omitted).
UniProt P15428, whole entry: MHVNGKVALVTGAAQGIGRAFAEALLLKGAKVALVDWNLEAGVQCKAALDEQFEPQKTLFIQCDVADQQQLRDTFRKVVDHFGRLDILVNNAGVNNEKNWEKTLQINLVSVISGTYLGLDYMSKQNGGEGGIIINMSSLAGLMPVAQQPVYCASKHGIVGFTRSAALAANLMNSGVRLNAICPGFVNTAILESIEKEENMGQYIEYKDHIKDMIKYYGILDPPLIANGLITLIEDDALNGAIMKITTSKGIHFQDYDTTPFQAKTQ

Target: 15-hydroxyprostaglandin dehydrogenase [NAD(+)] (Homo sapiens) (UniProt P15428)
Experiment: qHTS Assay for Inhibitors of HPGD (15-Hydroxyprostaglandin Dehydrogenase); also: test concentration not given here
Conditions: purified HPGD, NADH fluorescence kinetic, PGE2 substrate; hits give low values
% is scaled to controls: 0 for no effect and ±100 for the full control effect.

| SMILES | activity change, negative = inhibition |
| --- | --- |
| CC(C)N1C(=O)CC2(CCN(CCOC(=O)C(O)(c3ccccc3)c3ccccc3)CC2)C1=O | inactive: -9.47% |
